High-throughput results deposited in PubChem BioAssay by National Center for Advancing Translational Sciences (NCATS).
Only some compounds are listed: those with a hit (about 16% of all), similar ones and a draw of the others.
TDP1 cell noCPT: qHTS for Inhibitors of human tyrosyl-DNA phosphodiesterase 1 (TDP1): qHTS in cells in absence of CPT; DT40 Tdp1-/- hTDP1 cells, no CPT, ATP luminescence, 48 h; hit rate 15% among 420,000; AID 686978, 2013; Potency, µM (top dose mostly 46.2 µM), inactives show at the highest dose activity change, negative = growth inhibition, most hits filed as inhibitors; note: potency is the fitted concentration of half-maximal effect; % is set by controls: 0 for no effect and ±100 for the full control effect; nearly all actives have a fitted effect of over 55% in size
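Chicken DT40 Tdp1-/- cells stably complemented with human TDP1 were seeded at 400 cells/well with DMSO in place of 20 nM camptothecin. After compound pinning, cells grew at least 48 hr at 37 °C; viability read by CellTiter-Glo luminescence.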
TDP1 inh: blocks human tyrosyl-DNA phosphodiesterase 1. Q9NUW8. recombinant TDP1, AlphaScreen DNA substrate cleavage. Potency, µM (doses to about 130 µM), without a hit: top-dose activity change, negative = inhibition, actives largely listed as inhibitors. hit rate 0.28% among 350,000. AID 485290; note: potency is the fitted concentration of half-maximal effect; % is set by controls: 0 for no effect and ±100 for the full control effect; nearly all actives have a fitted effect of over 40% in size
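AlphaScreen read-out: signal falls as enzyme removes the 3' tyrosine-FITC from a 5'-biotinylated DNA oligo (15 nM, 5 min, RT). Enzyme was E. coli-made recombinant Tdp1 at 1 nM, exposed to compound for 15 min beforehand; beads 10 ug/ml, 10 min.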
miR-21 FLuc: raises the signal of a miR-21 reporter | AID 2288 | 340,000 tested, under 10 active | Potency, µM (series often up to 38.3 µM), without a hit: at the highest dose reporter change, positive = more light | HeLa miR-21 FLuc reporter, luciferase, 48 h; active = well fitted rising curve with a large enough effect; inconclusive = small, poorly fitted or top-dose-only effect; inactive = no such curve, though single readings can be large or run the other way;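 further: % of control where 0% means no effect; miR-21 action dims this reporter so a rising signal means less miR-21 action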
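Luminescence from a firefly luciferase reporter carrying a miR-21 binding site downstream, stably expressed under a CMV promoter in HeLa cells that make miR-21 endogenously, reports miRNA modulation after 48 h compound exposure up to approximately 40uM final.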
TDP1 cell CPT: DT40-hTDP1 cell growth loss with CPT; AID 686979; chicken DT40 Tdp1-/-;hTDP1 cells + 20 nM CPT, ATP luminescence, 48 h; hit rate 12% among 420,000; Potency, µM (doses to about 46.2 µM), inactives show at the top dose activity change, negative = growth inhibition, hits mostly inhibitors; note: potency is the fitted concentration of half-maximal effect; % is set by controls: 0 for no effect and ±100 for the full control effect; nearly all actives have a fitted effect of over 55% in size
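Chicken DT40 Tdp1-/- cells stably complemented with human TDP1 were seeded at 400 cells/well in medium containing 20 nM camptothecin, exposed to pin-transferred compounds, and grown at 37 °C for at least 48 hr. Viability was read as ATP luminescence.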
uPA generation: inhibitors of cell surface uPA generation; cell surface uPA generation assay, qHTS; Potency, µM (doses to about 38.3 µM), for the others: top-dose activity change, negative = inhibition, actives largely listed as inhibitors; hit rate 0.31% among 330,000; active = well fitted inhibition curve with a large enough effect; inconclusive = small, poorly fitted or top-dose-only effect; inactive = no such curve, though single readings can be large or run the other way; tested in mouse RAW 264.7 cells; note: potency is the fitted concentration of half-maximal effect; % is set by controls: 0 for no effect and ±100 for the full control effect; nearly all actives have a fitted effect of over 55% in size
Numbers without * were called inactive; ? = inconclusive; nt = no result given; [ ] = dose if it differs, or a comment. Unless noted, calls come from the whole dose curve; as a rule, active = well fitted curve in the direction sought with a large enough effect; inconclusive = small, poorly fitted or top-dose-only effect, or another doubt; inactive = no such curve, though single readings can be large; an effect the other way counts as inactive or inconclusive.

1. O=S1(=O)N[C@@H](Cc2ccccc2)COc2cc(Br)ccc21
2. O=C(CN1C(=O)/C(=C2\SC(=S)N(C3CCS(=O)(=O)C3)C2=O)c2ccccc21)Nc1ccccc1 (configuration not stated)
3. Cc1ccc(O)c(NC(=O)c2noc3c2CCCC3)c1
4. COC(=O)c1ccccc1NC(=O)c1noc2c1CCC2
5. COC(=O)c1ccccc1NC(=O)c1noc2c1CSc1ccccc1-2
6. CSc1ccccc1NC(=O)c1noc2c1CCC2
7. COc1ccc(/C=C/C=N/NC(=O)COc2ccc(OC)cc2)cc1
8. CC(C)C(NC(=O)COc1ccc2ccccc2c1)C(=O)N/N=C/C=C/c1ccccc1 (configuration not stated)
assay / compound | 1 | 2 | 3 | 4 | 5 | 6 | 7 | 8
TDP1 cell noCPT | -15.9% | 13µM* | ? | -25.3% | 18.7% | -20.5% | -11.6% | ?
TDP1 inh | nt | -3.2% | 0.0% | 11.2µM* | -11.4% | 15.8µM* | 5.3% | 3.8%
miR-21 FLuc | nt | -6.5% | -53.0% | -1.3% | -3.1% | -30.5% | -29.8% | -3.8%
TDP1 cell CPT | 0.3% | ? | ? | -2.7% | 27.0% | ? | 0.6% | 12.6µM*
uPA generation | -17.9% | -8.3% | nt | nt | nt | nt | -6.4% | nt

Structures listed so far that have sulfur (4):
1. O=S1(=O)N[C@@H](Cc2ccccc2)COc2cc(Br)ccc21
2. O=C(CN1C(=O)/C(=C2\SC(=S)N(C3CCS(=O)(=O)C3)C2=O)c2ccccc21)Nc1ccccc1 (configuration not stated)
5. COC(=O)c1ccccc1NC(=O)c1noc2c1CSc1ccccc1-2
6. CSc1ccccc1NC(=O)c1noc2c1CCC2
assay / compound | 1 | 2 | 5 | 6
TDP1 cell noCPT | -15.9% | 13µM* | 18.7% | -20.5%
TDP1 inh | nt | -3.2% | -11.4% | 15.8µM*
miR-21 FLuc | nt | -6.5% | -3.1% | -30.5%
TDP1 cell CPT | 0.3% | ? | 27.0% | ?
uPA generation | -17.9% | -8.3% | nt | nt

(more compounds)
9. Cc1cc(OCC(O)CN2CCOCC2)cc(C)c1Cl (configuration not stated)
10. CCOc1ccc(C2CC(=O)c3c([nH]c(C(=O)OC4CCC(C)CC4)c3C)C2)cc1 (configuration not stated)
11. CCC(C)OC(=O)c1[nH]c2c(c1C)C(=O)CC(c1ccc(N(C)C)cc1)C2 (configuration not stated)
12. CCOCCOC(=O)c1[nH]c2c(c1C)C(=O)CC(c1ccc(OC)c(OC)c1)C2 (configuration not stated)
13. Cc1c(C(=O)OCCOc2ccccc2)[nH]c2c1C(=O)CCC2
14. CCOc1ccc(C2CC(=O)c3c([nH]c(C(=O)OCCOc4ccccc4)c3C)C2)cc1 (configuration not stated)
15. CCN(CC)c1nc(N2CCOCC2)nc2ccccc12
16. COc1ccc(C2Nc3ccccc3C(=O)N2c2ccc(C)cc2)cc1Cn1cc([N+](=O)[O-])cn1 (configuration not stated)
assay / compound | 9 | 10 | 11 | 12 | 13 | 14 | 15 | 16
TDP1 cell noCPT | -19.9% | -8.7% | 14.6µM* | 13µM* | 23.1µM* | 14.6µM* | -25.9% | ?
TDP1 inh | nt | 0.0% | 5.2% | nt | 5.1% | -4.3%[12.3 µM] | nt | 5.4%
miR-21 FLuc | -7.5% | -3.8% | -3.1% | 10.9% | 19.1% | 4.9% | 2.5% | -48.7%
TDP1 cell CPT | -7.6% | -9.8% | 23.1µM* | ? | 14.6µM* | 13µM* | 6.7% | ?
uPA generation | 2.5% | nt | 10µM* | -2.5% | -3.5% | nt | 11.6% | -7.9%

17. Cn1nnc(NC(=S)NC(=O)c2cccc3c(Cl)cccc23)n1
18. Cc1nc(-c2ccccc2)sc1CCNS(=O)(=O)c1ccc(Br)cc1
19. Cc1c(C(=O)OC2CCCC2C)[nH]c2c1C(=O)CCC2 (configuration not stated)
20. CCOCCOC(=O)c1[nH]c2c(c1C)C(=O)CC(c1ccc(N(C)C)cc1)C2 (configuration not stated)
21. C/C=C/COC(=O)c1[nH]c2c(c1C)C(=O)CC(c1ccc(N(C)C)cc1)C2 (configuration not stated)
22. Cc1c(C(=O)OC2CCCCCC2)[nH]c2c1C(=O)CC(c1ccc(N(C)C)cc1)C2 (configuration not stated)
23. CCC(Sc1ccc2nnc(-c3cccnc3)n2n1)C(=O)OC (configuration not stated)
24. CCc1nc2ccccc2c(C(=O)OCC(=O)NCCCN2CCCC2=O)c1C
assay / compound | 17 | 18 | 19 | 20 | 21 | 22 | 23 | 24
TDP1 cell noCPT | 11.7% | nt | ? | ? | 16.4µM* | ? | ? | -8.4%
TDP1 inh | 5.2% | 0.0% | 5.3% | 10.9% | 6.2% | -5.0% | 2.3% | 3.2%
miR-21 FLuc | -4.2% | 21.0% | -70.4% | 8.2% | 7.2% | 2.6% | 2.6% | -10.9%
TDP1 cell CPT | -3.9% | nt | 20.6µM* | 23.1µM* | 25.9µM* | -4.4% | -6.9% | -7.0%
uPA generation | -10.1% | nt | -9.6% | 12.6µM* | ? | nt | -0.9% | 3.6%

no. | mol | TDP1 cell noCPT | TDP1 inh | miR-21 FLuc | TDP1 cell CPT | uPA generation
25 | COc1ccccc1N1CCN(C(CNC(=O)C(=O)NCCN(C)C)c2cccnc2)CC1 (configuration not stated) | -18.9% | -6.5% | 2.5% | -11.3% | nt
26 | COc1ccccc1CCNC(=O)C(=O)NCC(c1cccnc1)N1CCN(c2ccccc2)CC1 (configuration not stated) | 11.6µM* | 6.5% | 1.9% | 11.6µM* | nt
27 | COc1ccccc1CNC(=O)C(=O)NCC(c1cccnc1)N1CCN(c2ccc(F)cc2)CC1 (configuration not stated) | 13µM* | 6.5% | 26.7% | 11.6µM* | nt
28 | Cc1ccc(C(=O)CSc2nc3cc(C(=O)NC4CCCC4)ccc3c(=O)n2CC2CCCO2)cc1 (configuration not stated) | -16.4% | 5.3% | 0.4% | -6.5% | nt
29 | Clc1ccc2c(NNc3ccccc3Cl)ccnc2c1 | ? | 11.5% | -6.2% | ? | -1.3%
30 | Clc1ccc2c(N/N=C/c3cccc(Br)c3)ccnc2c1 | 16.4µM* | -2.2% | -14.9% | 16.4µM* | 0.0%
31 | O=[N+]([O-])c1ccc(/C=N/Nc2ccnc3cc(Cl)ccc23)o1 | 16.4µM* | nt | -12.4% | 14.6µM* | -6.7%
32 | Clc1ccc2c(N/N=C/c3ccccc3Br)ccnc2c1 | 2.91µM* | 3.4% | -5.3% | 7.31µM* | -2.4%
33 | Cc1ccc2nc(NCCCO)[nH]c2c1 | ? | nt | nt | -14.8% | 2.3%
34 | Cc1ccc(-c2csc(N(CCO)CCCn3c(C(F)(F)F)nc4ccccc43)n2)cc1 | ? | nt | 14.9% | 20.6µM* | 0.3%
35 | OCCn1c(C(F)(F)F)nc2ccccc21 | -15.5% | 0.0% | -0.4% | -2.6% | 5.4%
36 | O=C1C=CC(O)(c2cc(=O)c3c(O)cc(O)cc3o2)C=C1 | 0.517µM* | -2.6% | ? | 0.366µM* | 35.7%

no. | mol | TDP1 cell noCPT | TDP1 inh | miR-21 FLuc | TDP1 cell CPT | uPA generation
37 | O=c1[nH]c2cc(Cl)ccc2n1-c1ccccc1 | -7.6% | -1.0% | -8.7% | -5.9% | 2.7%
38 | O=c1[nH]c2c(cnn2-c2ccc(Cl)cc2)c(=O)n1-c1cccc(Cl)c1 | 29.1µM* | 5.1% | -27.0% | ? | 1.2%
39 | Cc1ccc(-c2nc3c(cnn3-c3ccccc3)c(=O)n2-c2cccc(Cl)c2)cc1 | 13µM* | 2.2%[12.3 µM] | -14.2% | 23.1µM* | nt
40 | O=c1oc(-c2cccc(Cl)c2)nc2c1cnn2-c1ccccc1 | ? | -2.0% | -2.2% | ? | -4.3%
41 | O=c1oc(-c2ccccc2F)nc2c1cnn2-c1ccccc1 | 23.1µM* | 1.0% | 0.6% | ? | -1.4%
42 | Cc1ccc(-n2c(-c3ccc(Br)cc3)nc3c(cnn3-c3ccccc3)c2=O)cc1 | 20.6µM* | -14.5%[12.3 µM] | 4.0% | ? | nt
43 | COc1cccc(-n2c(-c3ccccc3F)nc3c(cnn3-c3ccc(C)cc3)c2=O)c1 | 11.6µM* | -7.0% | 18.3% | 16.4µM* | nt
44 | O=C(CN1CCOCC1)Nc1c2c(nc3ccccc13)N(Cc1ccccc1)CC2 | -14.6% | 0.0% | 0.1% | -26.0% | -1.9%
